Literature values as cited in article PMC4728608, “A Cell-Penetrating Peptide with a Guanidinylethyl Amine Structure Directed to Gene Delivery” (Scientific Reports, 2016).

Conditions: cited from earlier work
From the text: The unnatural amino acid described herein was a lysine (Lys) derivative with a guanidinylethyl (GEt) group in the side chain amine [Lys(GEt)] (Fig. 1).

For `N=C(N)NCCC[C@H](N)C(=O)O` [Arg, Arginine], the “pKa of protonated side chain (guanidine of Arg, primary amine of Lys)” value is listed as 12.5.
